According to patent US9980943B2, “Methods of treating muscular dystrophy” (BOARD OF REGENTS OF THE NEVADA SYSTEM OF HIGHER EDUCATION, …, priority 2013, dated 2018):

System: α7 integrin (LacZ reporter in α7LacZ+/− myoblasts)
Test: qHTS of the LOPAC library and MLSMR (online screen, α7LacZ+/− myoblasts)

Structure (SMILES): COc1ccc(-c2c[nH]nc2-c2ccc(OC)cc2)cc1 [Compound 106]
- Curve Description: Partial
